# Data as given in PubChem BioAssay AID504708 (Sanford-Burnham Center for Chemical Genomics, 2011).
# Amino acid sequences for entries named in this document (tags omitted). A change or cut given only in a name is not applied to a line headed by its entry.
# UniProt Q2TB90: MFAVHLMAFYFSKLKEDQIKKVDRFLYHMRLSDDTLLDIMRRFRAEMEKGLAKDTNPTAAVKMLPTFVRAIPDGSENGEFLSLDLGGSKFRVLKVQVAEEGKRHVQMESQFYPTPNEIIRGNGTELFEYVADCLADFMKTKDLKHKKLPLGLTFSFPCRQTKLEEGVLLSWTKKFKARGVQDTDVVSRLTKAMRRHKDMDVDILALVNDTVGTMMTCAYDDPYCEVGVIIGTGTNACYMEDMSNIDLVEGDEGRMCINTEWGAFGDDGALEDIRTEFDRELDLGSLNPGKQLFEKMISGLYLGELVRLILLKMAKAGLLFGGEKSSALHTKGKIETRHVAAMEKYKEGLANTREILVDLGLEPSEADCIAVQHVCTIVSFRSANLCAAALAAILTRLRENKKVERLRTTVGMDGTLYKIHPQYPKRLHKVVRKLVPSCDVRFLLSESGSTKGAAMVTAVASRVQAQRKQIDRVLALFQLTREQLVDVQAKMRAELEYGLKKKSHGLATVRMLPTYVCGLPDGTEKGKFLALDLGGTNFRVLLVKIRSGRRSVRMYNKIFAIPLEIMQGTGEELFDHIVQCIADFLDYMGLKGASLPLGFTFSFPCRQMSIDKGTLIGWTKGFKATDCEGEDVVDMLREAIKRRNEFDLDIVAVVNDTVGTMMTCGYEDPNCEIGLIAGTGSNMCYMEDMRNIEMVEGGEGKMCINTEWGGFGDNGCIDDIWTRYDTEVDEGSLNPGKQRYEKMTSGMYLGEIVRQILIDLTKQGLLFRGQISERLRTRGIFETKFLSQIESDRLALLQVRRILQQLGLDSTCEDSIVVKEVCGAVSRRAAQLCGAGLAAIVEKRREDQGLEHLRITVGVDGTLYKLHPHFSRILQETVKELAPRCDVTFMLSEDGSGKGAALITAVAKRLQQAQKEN
# The list shows a part of the results, in another mix than the full data. The source made the active and inactive calls.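 Rule for the calls: active = inhibition at or below a set negative limit, negative inhibition meaning the enzyme was activated; inactive = the rest.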
# Target: Hexokinase HKDC1 (Homo sapiens) (UniProt Q2TB90)
# Assay: compounds raising human HKDC1 activity – biochemical, single concentration, confirmation (AID 504708)
# Details: recombinant HKDC1, G6PDH/diaphorase resazurin fluorescence; at 20 µM; stronger effect = lower value
structure (smiles),measurement,value
CN(C)C(=O)c1cc([N+](=O)[O-])cc2c1-c1c(cc([N+](=O)[O-])cc1[N+](=O)[O-])C2=O,inhibition,inactive: 56.7%
